According to BindingDB's records for patent US9481672 (Bayer Pharma Aktiengesellschaft, 2016):

biological target: T1, chymase (Golden hamster, UniProt A0A1U7QTH6); details: IC50 (nM)
T1 sequence (A0A1U7QTH6 whole entry): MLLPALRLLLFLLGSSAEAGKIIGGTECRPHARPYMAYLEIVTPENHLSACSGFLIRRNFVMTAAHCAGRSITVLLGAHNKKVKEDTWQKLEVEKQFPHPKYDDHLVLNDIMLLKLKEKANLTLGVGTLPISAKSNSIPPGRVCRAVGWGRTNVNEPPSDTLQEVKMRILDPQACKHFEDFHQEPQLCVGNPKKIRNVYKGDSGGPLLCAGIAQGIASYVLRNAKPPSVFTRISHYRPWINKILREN

**Q.** With `CCn1c(=O)oc2cc(-n3cc(C(=O)O)c(=O)n(Cc4cccc(C(F)(F)F)c4C)c3=O)ccc21` [US9481672, 192] as the molecule, how does the IC50 read?
**A.** 5 nM

**Q.** `Cn1c(=O)n(C)c2cc(-n3cc(C(=O)O)c(=O)n(Cc4cc(F)cc(Cl)c4)c3=O)ccc21` [US9481672, 129] was tested. Which IC50 did it give?
**A.** 450 nM

**Q.** Which IC50 does the source give for `CCOC(=O)c1cn(-c2ccc3c(c2)C(O)(C(F)(F)F)C(=O)N3C)c(=O)n(Cc2cccc(C(F)(F)F)c2C)c1=O` (racemic) [US9481672, 63] here?
**A.** 37 nM

**Q.** With `CN1C(=O)OCc2cc(-n3cc(C(=O)O)c(=O)n([C@@H]4CCc5c4cccc5C(F)(F)F)c3=O)ccc21` [US9481672, 204] as the molecule, how does the IC50 read?
**A.** 39 nM

**Q.** Which IC50 does the source give for `Cn1c(=O)oc2cc(-n3cc(C(=O)O)c(=O)n([C@@H]4CCCc5c(Cl)cccc54)c3=O)ccc21` (single isomer, unassigned) [US9481672, 288] here?
**A.** 14 nM

**Q.** With `CCOC(=O)c1cn(-c2ccc3c(c2)n(C(=O)OC(C)(C)C)c(=O)n3C)c(=O)n([C@@H]2CCc3c2cccc3C(F)(F)F)c1=O` [US9481672, 111] as the molecule, how does the IC50 read?
**A.** 20 nM

**Q.** `CCOC(=O)c1cn(-c2ccc3c(c2)C(C)(C)C(=O)N3C)c(=O)n(Cc2cccc(Cl)c2Cl)c1=O` [US9481672, 56] was tested. Which IC50 did it give?
**A.** 67 nM

**Q.** Which IC50 does the source give for `CCOC(=O)c1cn(-c2ccc3c(c2)oc(=O)n3C)c(=O)n(Cc2cccc(C(F)(F)F)c2Cl)c1=O` [US9481672, 41] here?
**A.** 23 nM

**Q.** `Cn1c(=O)oc2cc(-n3cc(C(=O)O)c(=O)n(C4CCCc5c(Cl)cccc54)c3=O)ccc21` (racemic) [US9481672, 284] was tested. Which IC50 did it give?
**A.** 11 nM

**Q.** How did the IC50 turn out when `Cn1c(=O)oc2cc(-n3cc(C(=O)O)c(=O)n([C@@H]4CCCc5c4cccc5C(F)(F)F)c3=O)ccc21` (single isomer, unassigned) [US9481672, 294] was run?
**A.** 2 nM

**Q.** `CCn1c(=O)n(C)c2ccc(-n3cc(C(=O)O)c(=O)n(Cc4cccc(Cl)c4C(F)(F)F)c3=O)cc21` [US9481672, 139] was tested. Which IC50 did it give?
**A.** 2 nM

**Q.** With `CCOC(=O)c1cn(-c2ccc3c(c2)C(C)(O)C(=O)N3C)c(=O)n(Cc2cccc(C(F)(F)F)c2Cl)c1=O` (racemic) [US9481672, 62] as the molecule, how does the IC50 read?
**A.** 44 nM

**Q.** How did the IC50 turn out when `CN1C(=O)C(C)(O)c2cc(-n3cc(C(=O)O)c(=O)n(Cc4cccc(C(F)(F)F)c4Cl)c3=O)ccc21` (racemic) [US9481672, 201] was run?
**A.** 7 nM

**Q.** For `CCOC(=O)c1cn(-c2ccc3c(c2)oc(=O)n3C)c(=O)n(C2COCc3c(Cl)cccc32)c1=O` (racemic) [US9481672, 302], which IC50 is on record?
**A.** 19 nM

**Q.** `Cn1c(=O)n(CC(O)C(F)(F)F)c2cc(-n3cc(C(=O)O)c(=O)n([C@@H]4CCc5c4cccc5C(F)(F)F)c3=O)ccc21` (mixture of isomers) [US9481672, 246] was tested. Which IC50 did it give?
**A.** 1 nM

**Q.** Which IC50 does the source give for `CC(c1cccc(C(F)(F)F)c1Cl)n1c(=O)c(C(=O)O)cn(-c2ccc3c(c2)oc(=O)n3C)c1=O` (racemic) [US9481672, 256] here?
**A.** 170 nM

**Q.** How did the IC50 turn out when `CN1C(=O)C(C)(C)c2cc(-n3cc(C(=O)O)c(=O)n(Cc4cccc(Cl)c4C(F)(F)F)c3=O)ccc21` [US9481672, 220] was run?
**A.** 6 nM

**Q.** `CN1C(=O)C2(CC2)c2cc(-n3cc(C(=O)O)c(=O)n(Cc4cccc(C(F)(F)F)c4Cl)c3=O)ccc21` [US9481672, 225] was tested. Which IC50 did it give?
**A.** 4 nM

**Q.** Which IC50 does the source give for `CCOC(=O)c1cn(-c2ccc3c(c2)n(CCC(F)(F)F)c(=O)n3C)c(=O)n([C@@H]2CCc3c2cccc3C(F)(F)F)c1=O` [US9481672, 116] here?
**A.** 20 nM

**Q.** `CCOC(=O)c1cn(-c2ccc3c(c2)n(C2CCC2)c(=O)n3C)c(=O)n(Cc2cccc(C(F)(F)F)c2C)c1=O` [US9481672, 33] was tested. Which IC50 did it give?
**A.** 4 nM

**Q.** `CCOC(=O)c1cn(-c2ccc3c(c2)OCC(=O)N3C)c(=O)n(Cc2cccc(C(F)(F)F)c2C)c1=O` [US9481672, 266] was tested. Which IC50 did it give?
**A.** 59 nM

**Q.** For `CCOC(=O)c1cn(-c2ccc3c(cnn3C)c2)c(=O)n([C@@H]2CCc3c2cccc3C(F)(F)F)c1=O` [US9481672, 76], which IC50 is on record?
**A.** 41 nM

**Q.** `CCOC(=O)c1cn(-c2ccc3c(c2)oc(=O)n3C)c(=O)n(C2CCCc3c2cccc3C(F)(F)F)c1=O` (racemic) [US9481672, 290] was tested. Which IC50 did it give?
**A.** 8 nM

**Q.** `Cn1c(=O)oc2cc(-n3cc(C(=O)O)c(=O)n(C4CCCc5c4cccc5C(F)(F)F)c3=O)ccc21` (racemic) [US9481672, 291] was tested. Which IC50 did it give?
**A.** 4 nM

**Q.** `Cc1cc2[nH]c(=O)[nH]c2cc1-n1cc(C(=O)O)c(=O)n(Cc2cccc(C(F)(F)F)c2Cl)c1=O` [US9481672, 264] was tested. Which IC50 did it give?
**A.** 31 nM

**Q.** How did the IC50 turn out when `Cn1c(=O)n(C)c2cc(-n3cc(C(=O)O)c(=O)n(C4CCc5c(F)cc(F)cc54)c3=O)ccc21` (racemic) [US9481672, 231] was run?
**A.** 21 nM

**Q.** With `CCOC(=O)c1cn(-c2ccc3c(c2)sc(=O)n3C)c(=O)n(C2CCc3c(Cl)cc(Cl)cc32)c1=O` (racemic) [US9481672, 249] as the molecule, how does the IC50 read?
**A.** 200 nM

**Q.** `CC(C)n1cnc2cc(-n3cc(C(=O)O)c(=O)n(Cc4cccc(C(F)(F)F)c4Cl)c3=O)ccc21` [US9481672, 171] was tested. Which IC50 did it give?
**A.** 17 nM

**Q.** How did the IC50 turn out when `Cn1c(=O)n(C)c2cc(-n3cc(C(=O)O)c(=O)n(Cc4cccc(F)c4C(F)(F)F)c3=O)ccc21` [US9481672, 125] was run?
**A.** 6 nM

**Q.** With `CCOC(=O)c1cn(-c2ccc3c(c2)C(C)(C)C(=O)N3C)c(=O)n(Cc2cccc(C(F)(F)F)c2Cl)c1=O` [US9481672, 52] as the molecule, how does the IC50 read?
**A.** 16 nM

**Q.** How did the IC50 turn out when `Cn1c(=O)n(CC(F)(F)F)c2cc(-n3cc(C(=O)O)c(=O)n([C@@H]4CCc5c4cccc5C(F)(F)F)c3=O)ccc21` [US9481672, 241] was run?
**A.** 2 nM

**Q.** With `CCOC(=O)c1cn(-c2ccc3c(c2)n(CC(O)C(F)(F)F)c(=O)n3C)c(=O)n([C@@H]2CCc3c2cccc3C(F)(F)F)c1=O` (stereo partly specified) [US9481672, 115] as the molecule, how does the IC50 read?
**A.** 10 nM

**Q.** How did the IC50 turn out when `Cn1c(=O)sc2cc(-n3cc(C(=O)O)c(=O)n([C@@H]4CCCc5c4cccc5C(F)(F)F)c3=O)ccc21` (single isomer, unassigned) [US9481672, 300] was run?
**A.** 2 nM

**Q.** `CCOC(=O)c1cn(-c2ccc3c(c2)sc(=O)n3C)c(=O)n(Cc2cccc(C(F)(F)F)c2C)c1=O` [US9481672, 48] was tested. Which IC50 did it give?
**A.** 17 nM

**Q.** `CCOC(=O)c1cn(-c2ccc3c(c2)n(C)c(=O)n3C)c(=O)n(C2CCCc3c(Cl)cccc32)c1=O` (racemic) [US9481672, 269] was tested. Which IC50 did it give?
**A.** 14 nM

**Q.** How did the IC50 turn out when `Cn1ncc2cc(-n3cc(C(=O)O)c(=O)n([C@@H]4CCc5c4cccc5C(F)(F)F)c3=O)ccc21` [US9481672, 176] was run?
**A.** 29 nM

**Q.** Which IC50 does the source give for `CCOC(=O)c1cn(-c2ccc3c(c2)n(C2CC2)c(=O)n3C)c(=O)n([C@@H]2CCc3c2cccc3C(F)(F)F)c1=O` [US9481672, 117] here?
**A.** 3 nM

**Q.** How did the IC50 turn out when `Cn1c(=O)oc2cc(-n3cc(C(=O)O)c(=O)n([C@H]4CCCc5c(Cl)cccc54)c3=O)ccc21` (single isomer, unassigned) [US9481672, 289] was run?
**A.** 970 nM

**Q.** How did the IC50 turn out when `CN1C(=O)C(C)(C)c2cc(-n3cc(C(=O)O)c(=O)n(Cc4cccc(C(F)(F)F)c4Cl)c3=O)ccc21` [US9481672, 218] was run?
**A.** 4 nM

**Q.** How did the IC50 turn out when `Cn1cnc2cc(-n3cc(C(=O)O)c(=O)n(Cc4cccc(Cl)c4C(F)(F)F)c3=O)ccc21` [US9481672, 161] was run?
**A.** 53 nM

**Q.** `CCn1c(=O)n(C)c2ccc(-n3cc(C(=O)O)c(=O)n(Cc4cccc(C(F)(F)F)c4Cl)c3=O)cc21` [US9481672, 140] was tested. Which IC50 did it give?
**A.** 1 nM

**Q.** For `CC(=O)N1CC(C)(C)c2ccc(-n3cc(C(=O)O)c(=O)n(Cc4cccc(C(F)(F)F)c4C)c3=O)cc21` [US9481672, 213], which IC50 is on record?
**A.** 18 nM

**Q.** `Cn1nnc2cc(-n3cc(C(=O)O)c(=O)n(Cc4cccc(Cl)c4Cl)c3=O)ccc21` [US9481672, 156] was tested. Which IC50 did it give?
**A.** 12 nM

**Q.** `Cc1c(Cn2c(=O)c(C(=O)O)cn(-c3ccc4c(c3)N(C)C(=O)C4(C)C)c2=O)cccc1C(F)(F)F` [US9481672, 205] was tested. Which IC50 did it give?
**A.** 3 nM

**Q.** Which IC50 does the source give for `Cn1c(=O)sc2cc(-n3cc(C(=O)O)c(=O)n(C4CCCc5c4cccc5C(F)(F)F)c3=O)ccc21` (racemic) [US9481672, 296] here?
**A.** 3 nM

**Q.** Which IC50 does the source give for `Cc1nc2cc(-n3cc(C(=O)O)c(=O)n(Cc4cccc(F)c4C(F)(F)F)c3=O)ccc2n1C1CCCCC1` [US9481672, 169] here?
**A.** 370 nM

**Q.** How did the IC50 turn out when `CCOC(=O)c1cn(-c2ccc3c(c2)n(C)c(=O)n3C)c(=O)n(C(C)c2cccc(C(F)(F)F)c2C)c1=O` (racemic) [US9481672, 251] was run?
**A.** 420 nM

**Q.** For `Cn1c(=O)sc2cc(-n3cc(C(=O)O)c(=O)n([C@H]4CCCc5c4cccc5C(F)(F)F)c3=O)ccc21` (single isomer, unassigned) [US9481672, 301], which IC50 is on record?
**A.** 33 nM

**Q.** How did the IC50 turn out when `CCOC(=O)c1cn(-c2ccc3c(cnn3C)c2)c(=O)n(Cc2cccc(C(F)(F)F)c2Cl)c1=O` [US9481672, 89] was run?
**A.** 84 nM

**Q.** For `Cc1c(Cn2c(=O)c(C(=O)O)cn(-c3ccc4c(c3)C3(CC3)C(=O)N4C)c2=O)cccc1C(F)(F)F` [US9481672, 226], which IC50 is on record?
**A.** 3 nM

**Q.** How did the IC50 turn out when `CCOC(=O)c1cn(-c2ccc3c(c2)n(CC)c(=O)n3C)c(=O)n([C@@H]2CCc3c2cccc3C(F)(F)F)c1=O` [US9481672, 113] was run?
**A.** 6 nM
